The OPERA property sets (Mansouri et al. 2018)

Q: With `CC(C)N1CCC(N(C(=O)Cc2ccccc2)c2ccc(Cl)cc2)CC1` as the compound, how does the logP read?
A: 4.85
